Laboratory results from patent US10450585B2, “Delivery methods and compositions for nuclease-mediated genome engineering” (Sangamo Therapeutics, Inc., priority 2015, dated 2019).

Test system: human patient-derived primary hepatocytes
Assay: AAV2/6 ZFN transduction of primary hepatocytes with PDGFR inhibitor; % indels
Assay type: cell-based
Protocol: We next tested the effect of PDGFR inhibitors human patient-derived primary hepatocytes. For human hepatocytes, 48-well cell culture dishes were purchased pre-coated with collagen (Life Technologies). Plates were incubated for 1 hour at 37° C. Thawing/plating media was prepared by combining 18 mL InVitroGRO CP medium (BioreclamationIVT) and 400 μL Torpedo antibiotic mix (Celsis In Vitro Technologies). Once the plates were prepared, the plate-able human hepatocytes (Lot# AKB), were transferred from the liquid nitrogen vapor phase directly into the 37° C. water bath and thawed under gently stirring. The cells were transferred directly into a 50 ml conical tube containing 5 mL of pre-warmed thawing/plating medium. To retrieve all the cells, the vial was washed with 1 mL of thawing/plating medium, which was added to the cells. Following resuspension of the cells, a small aliquot (20 μL) was removed to perform a cell count and to determine cell viability using trypan blue solution (1:5; Corning, Cat#25-900-C1). The cells were then centrifuged at 75×g for 5 minutes, the supernatant was removed and the cells were resuspended at 1e6 cells/mL. […]
One day after the cells were plated, cells were switched to HCM maintenance medium (Lonza, HBM and HCM SingleQuots). […] Genomic DNA was extracted and analyzed by deep sequencing (MiSeq) at the albumin locus.

CC1(COc2ccc3c(c2)ncn3-c2ccc3cccc(N4CCC(N)CC4)c3n2)COC1 [PDGFRi]
increase in AAV2/6 transduction compared to DMSO treated controls (high dose 9 μM, absence of serum): 5 fold | increased AAV2/6 transduction compared to DMSO treated controls (low dose (3)): not
